Tested on: rat neurons
Settings: 100 nM dye after TCO2 ligation

Aminobenzyltetrazine Alexa Fluor 647 [Tz1-Alexa 647]
toxicity of labeling: minimal apparent toxicity
